Experimental data from US6455045B1, “Immunogenic compounds with in particular an anti-cytokine effect, preparation process, pharmaceutical compositions and kits containing them” (priority 1991, dated 2002).

Assay: Toxicity in man, intramuscular injection
Type: in vivo
Settings: dose of 200 to 400 mg
Excerpt: The derivatives according to the invention have a very weak toxicity both for animals and man.

Substance: Example 1: IFN-α (Hoffmann-Laroche) inactivated with 33 mM formaldehyde, 3 days 37° C., lysine added, dialyzed, lyophilized in doses
- toxic effect: did not produce any detectable toxic effect
